# Test results taken from ChEMBL document CHEMBL1123777 (J Med Chem, 1987).
# By UniProt entry, the sequences of proteins in these tests, tags left out.
# UniProt P18901, whole entry: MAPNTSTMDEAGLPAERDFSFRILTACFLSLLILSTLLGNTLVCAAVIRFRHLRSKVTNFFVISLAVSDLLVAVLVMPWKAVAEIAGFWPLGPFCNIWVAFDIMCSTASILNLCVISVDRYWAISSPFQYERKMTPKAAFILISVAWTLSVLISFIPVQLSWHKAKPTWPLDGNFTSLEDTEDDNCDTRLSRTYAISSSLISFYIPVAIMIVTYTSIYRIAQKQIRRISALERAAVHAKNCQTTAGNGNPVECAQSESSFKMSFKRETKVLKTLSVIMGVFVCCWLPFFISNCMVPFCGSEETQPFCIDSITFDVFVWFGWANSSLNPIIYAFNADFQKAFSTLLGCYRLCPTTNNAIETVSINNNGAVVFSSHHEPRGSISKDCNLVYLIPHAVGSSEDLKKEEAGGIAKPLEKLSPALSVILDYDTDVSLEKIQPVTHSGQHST
# Molecular target: D(1A) dopamine receptor (Rattus norvegicus) (UniProt P18901)
# Conditions: Striatum
row,Compound,K bind
1,NCCc1cccc2nc(O)sc12,980 nM
2,CCCN(CCC)CCc1cccc2nc(O)sc12,4700 nM
3,CCCN(CCC)CCc1ccc(O)c2nc(O)sc12,516 nM
4,CCCN(CCC)CCc1ccc(O)c2c1C(=O)C(=O)N2,10000 nM
5,CCCN(CCC)CCc1ccc(O)c2[nH]c(O)nc12,2420 nM
6,CCCN(CCC)CCc1ccc(O)c2nc(O)oc12,6330 nM
7,CNCCc1ccc(O)c2nc(O)sc12,30 nM
